Data reported in patent publication US20150218516A1, “COMPOSITIONS AND METHODS FOR ENHANCING IMMUNE RESPONSES MEDIATED BY ANTIGEN-PRESENTING CELLS” (The Board of Regents of the University of Nebraska, priority 2007, published 2015).

Tests used:
human umbilical artery = experiment: Smooth muscle contraction of human umbilical artery; type: cell-based; settings: −log EC50 (M), mean ± SE, n=3
Protocol: Statistical analysis of the values obtained from pharmacologic assays was performed using one-way analysis of variance (ANOVA).

[1] = test system: P815S (HBsAg transfectant) target cells; experiment: HBsAg-specific CTL response of immunized mice, 51Cr-release cytotoxicity assay; type: in vivo, BALB/c mice; settings: s.c. in PBS
Protocol: Groups of six to eight BALB/c mice were given bilateral s.c. injections in the inguinal area with (100 al each side) of a PBS solution containing 50-100 μg of the peptides. Booster injections were given s.c. in the inguinal region at 21-day intervals. Sera for Ab analysis were obtained by retro-orbital bleeds of mice under CO2 narcosis.
Three weeks after secondary) (2° immunization and two weeks after tertiary)(3° immunization, two to three mice from each experimental group were sacrificed by cervical dislocation and their spleens removed aseptically. Pooled splenic single-cell suspensions were prepared in RPMI-1640 medium (Sigma, St. Louis, Mo.) containing 10% FBS (Hyclone, Salt Lake City, Utah) and the following supplements: 10 mM HEPES buffer, 50 μM 2-ME, 2 mM L-glutamine, 50 μg/ml gentamicin sulfate, 100 Um′ penicillin, and 50 μg/ml streptomycin (all supplements from Sigma). This supplemented complete medium is designated RP10-SC. For culture, 75×10^6 pooled spleen cells in 5 ml of RP10-SC were pipetted into a 25 cm^2 T-flask (Corning). Next, 5 ml of RP 10-SC containing 150 nM of synthetic, L^d MHC class I-restricted peptide, […] (SEQ ID NO:12) were added to the flask. The flasks were incubated undisturbed in an upright position at 37° C. in 5% CO2. After 4 days of incubation, the cells were recovered from the T-flasks, washed once by centrifugation in fresh RP10-SC, resuspended in 5 ml RP10-SC, counted, and adjusted to 5×10^6 viable cells/ml.
The specific cell target used for measuring CTL activity was P815S, a transfectant cell line of P815 (H-2^d) expressing the HBsAg (14). P815S was grown in RP10-SC medium containing 400 μg/ml geneticin disulfate (G418, Sigma). The parental H-2^d mastocytoma cell line, P815 (ATTC #TIB64) grown in RP10-SC medium, was used as a non-specific target for CTL assays to measure % non-specific lysis.
The target cells, either P815S or P815, were washed 2 times in RP10-SC. For labeling, 5×10^6 target cells were mixed with 250 μCi ^51Cr-sodium chromate[400-1200 Ci (14.8-44.4 TBq)]/[…]; NEN Dupont, Boston, Mass.) in a 1.0 ml volume in a 50 ml conical tube and incubated in a 37° C. water bath for 90 mins. After incubation, the labeled cells were washed 3 times by centrifugation using 15 ml volumes of fresh RP10-SC and allowed to stand at room temperature for 30 mins. The pelleted cells were resuspended in RP10-SC at 1×10^6 cells/ml.
The recovered splenic effector cells at 5×10^6 cells/ml were serially diluted in triplicate in wells of round-bottom 96 well plates (Corning, 25850) in a total volume of 100 al/well and using RP10-SC as the diluent. […] The amount of ^51Cr radioactivity in the supernatant fractions was measured using a Wallac 1470 Wizard gamma counter (Turku, Finland).

MUC1 epitope peptide = experiment: Serum antibody response to MUC1 epitope peptide in immunized mice (RIA); type: in vivo, C57B16 and Balb/c mice; settings: 100 μg i.p. with RIBI adjuvant, three immunizations, sera at 6 weeks
Text: The strains of mice used for this example were inbred females 6 to 12 week old C57B16(H-2^b) and Balb/c (H-2^d), which were obtained from Jackson labs (Bar Harbor, Me.). […] The MUC1 peptide selected for these studies contained a motif that may bind to the H-2K^b molecule of the C57B16 mice; therefore, a strain of mouse that lacked this class I molecule binding motif (Balb/c) was also studied to determine the relative contribution of the class I binding motif to the antigen presentation properties of these peptides.
Preimmune sera were obtained from mice, which were subsequently immunized intraperitoneally with 100 μg of the indicated peptide with RIBI adjuvant (MPL+TDM+CWS) (Sigma Immunochemicals). Animals were boosted twice at two week intervals using the same injection procedure. Sera were obtained following three immunizations (at 6 weeks).
For radioimmunoassay (RIA), anti-peptide antibodies were determined, before and at different time points after immunization, in 96-well microtiter plates (Dynatech Laboratories, Inc.). Plates were coated with 50 μl of a 100 μg/ml appropriate peptide in phosphate-buffered saline (PBS) pH 7.4 solution overnight at 4° C. […] Anti-peptide antibody titers were determined using serial dilutions of sera. […] After washing, specific radioactivity was recorded in a gamma counter (1272 CliniGamma, LKB). […]

[2] = test system: A-375 cell line (melanoma); type: cell-based, human
Protocol: The tumor peptide antigen tyrosinase is expressed on more than 70% of human melanoma cells that are human leukocyte antigen (HLA) A2 positive. […] The dendritic cells, presumably expressing the tyrosinase epitope, were then cultured with a lymphocyte-enriched cell population which was then cultured with melanoma cells to determine melanoma cell killing using a cytotoxic T lymphocyte assay.

Caki-1 cells = experiment: In vitro cytotoxicity of T lymphocytes cultured with peptide-pulsed dendritic cells against Caki-1; type: cell-based, human; settings: cord blood-derived T lymphocytes cultured with dendritic cells exposed to the peptide
LNCaP cells = test system: LNCaP cells
Protocol: (§1) An exemplary in vitro cytotoxicity assay comprises the following steps. Antigen presenting cells, such as dendritic cells, were obtained from bone marrow or blood. Dendritic cells were preferentially differentiated in culture through the addition of IL-4, GM-CSF, and TNFα for 7-10 days. Dendritic cells were then pulsed with peptides for 18 hours. MNCs were also isolated from spleens or blood (e.g., cord or peripheral) and cultured in IL-2 and GM-CSF for 7-10 days for enhanced lymphocyte proliferation. The pulsed dendritic cells were then co-cultured with the lymphocyte-enriched MNCs at a 1:10 ratio for 4 days. Lymphocyte-enriched MNC effector cells were then co-cultured with tumor target cells labeled with the bioactive fluorescent dye Calcein AM for 4 hours. Lysed cells were detected by photometrically measuring the released fluorescent dye.
(§2) Certain prostate carcinomas express prostate-specific membrane antigen (PSMA). […] The fusion peptides were administered to APCs which were subsequently presented to a lymphocyte-enriched population from cord blood as described hereinabove in Example 6. […] In vitro cytotoxicity against the human prostate cancer cell line LNCaP was then assessed using the bioactive fluorescent dye calcein AM (FIG. 11D).

BEAS-2B epithelial cells = experiment: In vitro cytotoxicity of T lymphocytes cultured with peptide-pulsed dendritic cells against BEAS-2B; settings: cord blood derived T lymphocytes; cells do not express PSMA
Protocol: as §1, §2

CSCC[C@H](NC(=O)[C@@H]1CCCN1C(=O)[C@H](CCCCN)NC(=O)[C@H](Cc1ccccc1)NC(=O)[C@H](CO)NC(=O)[C@@H](N)Cc1ccc(O)cc1)C(=O)N1CCC[C@H]1C(=O)N[C@@H](CC(C)C)C(=O)N[C@H](C)C(=O)N[C@@H](CCCNC(=N)N)C(=O)O
pD2 ± SE (human umbilical artery): 6.99 ± 0.22
% Specific Lysis ([1]; Effector:Target 6.25:1, boost day 21, spleen cells day 42): 1%
% Specific Lysis ([1]; Effector:Target 12.5:1, boost day 21, spleen cells day 42): 0%
% Specific Lysis ([1]; Effector:Target 25:1, boost day 21, spleen cells day 42): 2%
% Specific Lysis ([1]; Effector:Target 50:1, boost day 21, spleen cells day 42, restimulated 4 days with S28-39): 1%
antibody response (in words) (MUC1 epitope peptide): no appreciable increase in antibody response
cytotoxicity against A-375 (in words) [2]: not cytotoxic
cytotoxicity against tyrosinase-negative Caki-1 (in words) (Caki-1 cells): incapable of killing
cytotoxicity against LNCaP (in words) (LNCaP cells): did not exhibit significant cytotoxicity
cytotoxicity against BEAS-2B (in words) (BEAS-2B epithelial cells): not cytotoxic
